Target: T1, HpCAβ (Helicobacter pylori, UniProt O24855)
T1 sequence (O24855 1-221): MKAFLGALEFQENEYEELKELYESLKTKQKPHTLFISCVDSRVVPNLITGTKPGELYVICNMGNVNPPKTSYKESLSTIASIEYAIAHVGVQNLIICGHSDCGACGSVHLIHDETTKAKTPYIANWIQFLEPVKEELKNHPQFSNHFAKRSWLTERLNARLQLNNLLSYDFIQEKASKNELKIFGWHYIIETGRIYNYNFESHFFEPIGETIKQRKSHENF
Assay type: biochemical

Cc1ccc(C(C)C)c(O)c1 [thymol]
fold higher inhibition profile of thymol over carvacrol: 4 fold
